Target: Recombinant human renin (Homo sapiens, UniProt P00797)
Test: Inhibition of renin (fluorogenic peptide substrate)
Format: biochemical
Details: read-out: IC50 values for inhibition of renin (fluorogenic peptide substrate); recombinant human renin 5 nM, substrate 10 μM, 2 h at room temperature, Tris buffer pH 8; compounds tested as the obtained salt; tested form: 2HCl

By UniProt entry, the sequences of proteins in these tests, tags left out. Residues count along the entry.
UniProt P00797, 67-406 limits assumed: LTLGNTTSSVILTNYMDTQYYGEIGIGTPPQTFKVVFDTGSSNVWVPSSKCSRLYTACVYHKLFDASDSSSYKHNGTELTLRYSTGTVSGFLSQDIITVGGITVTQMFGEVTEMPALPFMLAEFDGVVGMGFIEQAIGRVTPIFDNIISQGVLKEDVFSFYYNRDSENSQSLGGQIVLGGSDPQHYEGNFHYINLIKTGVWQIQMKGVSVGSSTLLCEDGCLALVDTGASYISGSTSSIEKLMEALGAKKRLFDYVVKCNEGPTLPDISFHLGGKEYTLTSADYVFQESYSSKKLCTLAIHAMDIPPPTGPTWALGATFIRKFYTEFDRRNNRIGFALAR

IC50: 0.024 µM
Compound: Cc1cccc(C)c1Oc1c(C(=O)N2CCNCC2)c2ncccc2n1-c1ccc(F)cc1

Source: patent US8580813B2, “Cyclic azaindole-3-carboxamides, their preparation and their use as pharmaceuticals” (Sanofi, priority 2008, dated 2013)
